Values of other authors, collected in patent publication US6743448B2, “Topical testosterone formulations and associated methods” (priority 2000, dated 2004).

Chains of the proteins cited; added tags and fusions are not shown. Residues count along the entry.
UniProt P02768, 25-609: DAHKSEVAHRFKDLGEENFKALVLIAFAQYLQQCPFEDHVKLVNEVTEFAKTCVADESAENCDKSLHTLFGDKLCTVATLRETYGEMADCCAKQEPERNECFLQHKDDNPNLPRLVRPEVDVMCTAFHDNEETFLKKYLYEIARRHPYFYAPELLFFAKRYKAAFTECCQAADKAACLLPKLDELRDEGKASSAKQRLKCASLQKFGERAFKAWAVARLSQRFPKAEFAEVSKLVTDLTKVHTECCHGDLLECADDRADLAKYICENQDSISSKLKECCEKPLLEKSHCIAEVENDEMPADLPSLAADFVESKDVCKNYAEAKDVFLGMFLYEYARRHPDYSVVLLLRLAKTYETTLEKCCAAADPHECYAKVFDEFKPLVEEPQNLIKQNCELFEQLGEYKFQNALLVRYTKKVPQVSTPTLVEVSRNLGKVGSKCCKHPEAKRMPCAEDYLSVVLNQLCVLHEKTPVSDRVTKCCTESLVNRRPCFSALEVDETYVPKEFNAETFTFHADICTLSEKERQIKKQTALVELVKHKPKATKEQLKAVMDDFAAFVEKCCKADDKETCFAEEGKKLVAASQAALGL

Target: serum albumin (Homo sapiens, UniProt P02768)

## C[C@]12CC[C@H]3[C@@H](CCC4=CC(=O)CC[C@@]43C)[C@@H]1CC[C@@H]2O [Testosterone, (17)-17-Hydroxyandrost-4-en-3-one]
  Albumin-testosterone binding constant: 36000 L/mol
